What was measured:
Nischarin = Nischarin (Rattus norvegicus, UniProt Q4G017); test: Displacement of [125I]-p-iodoclonidin from I1-imidazoline receptor in rat PC12 cell membranes; parameters: species or system PC-12
PC-12 = test: Selectivity ratio, […]-imidazoline receptor in rat PC12 cell membranes to […] adrenoreceptor in rat cortex membranes; format: cell-based

Chains of the proteins cited; added tags and fusions are not shown. Lines headed by an entry give the natural chain unless they say otherwise; changes in a name come on top.
UniProt Q4G017: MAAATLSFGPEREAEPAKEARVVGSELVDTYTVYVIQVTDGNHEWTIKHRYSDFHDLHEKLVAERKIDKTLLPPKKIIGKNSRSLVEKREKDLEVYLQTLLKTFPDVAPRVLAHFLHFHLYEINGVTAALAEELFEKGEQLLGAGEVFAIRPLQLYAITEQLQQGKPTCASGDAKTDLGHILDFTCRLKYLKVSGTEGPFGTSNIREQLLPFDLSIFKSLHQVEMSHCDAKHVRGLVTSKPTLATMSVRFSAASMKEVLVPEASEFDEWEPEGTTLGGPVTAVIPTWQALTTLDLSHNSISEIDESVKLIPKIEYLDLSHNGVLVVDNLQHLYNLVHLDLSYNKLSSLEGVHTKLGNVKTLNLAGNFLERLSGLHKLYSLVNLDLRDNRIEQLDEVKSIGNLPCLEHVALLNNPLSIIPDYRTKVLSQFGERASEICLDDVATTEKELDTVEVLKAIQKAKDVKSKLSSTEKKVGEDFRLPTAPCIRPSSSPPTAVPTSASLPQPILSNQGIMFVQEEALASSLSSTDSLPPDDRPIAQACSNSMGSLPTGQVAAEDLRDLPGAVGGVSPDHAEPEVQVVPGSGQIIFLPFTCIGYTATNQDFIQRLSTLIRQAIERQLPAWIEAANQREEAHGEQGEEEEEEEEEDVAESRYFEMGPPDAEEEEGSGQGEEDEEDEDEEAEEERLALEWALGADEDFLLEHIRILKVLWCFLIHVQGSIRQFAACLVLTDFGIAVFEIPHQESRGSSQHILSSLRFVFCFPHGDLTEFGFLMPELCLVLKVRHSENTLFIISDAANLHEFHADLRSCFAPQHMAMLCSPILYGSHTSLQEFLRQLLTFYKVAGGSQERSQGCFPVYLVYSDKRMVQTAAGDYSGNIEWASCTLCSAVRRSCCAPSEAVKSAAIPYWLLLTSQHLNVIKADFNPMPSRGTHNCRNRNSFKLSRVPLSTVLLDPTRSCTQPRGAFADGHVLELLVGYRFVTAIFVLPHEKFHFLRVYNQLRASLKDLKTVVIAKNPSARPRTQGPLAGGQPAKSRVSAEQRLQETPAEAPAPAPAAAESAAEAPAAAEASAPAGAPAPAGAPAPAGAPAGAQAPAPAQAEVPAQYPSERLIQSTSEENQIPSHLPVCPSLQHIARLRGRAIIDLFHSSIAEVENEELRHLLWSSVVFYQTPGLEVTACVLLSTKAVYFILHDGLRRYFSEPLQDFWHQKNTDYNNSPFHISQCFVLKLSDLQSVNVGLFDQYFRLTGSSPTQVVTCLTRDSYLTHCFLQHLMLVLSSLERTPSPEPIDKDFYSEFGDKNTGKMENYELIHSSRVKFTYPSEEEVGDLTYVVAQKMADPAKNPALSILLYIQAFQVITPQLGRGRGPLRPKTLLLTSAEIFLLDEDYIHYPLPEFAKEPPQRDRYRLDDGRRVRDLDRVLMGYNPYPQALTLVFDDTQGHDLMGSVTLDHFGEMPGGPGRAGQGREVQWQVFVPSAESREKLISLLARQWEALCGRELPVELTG

- Ki (Nischarin): 5.01 nM
Structure (SMILES): CC(Cc1ccccc1)C1=NCCN1 (configuration not stated)
- Ratio (PC-12): 708

From ChEMBL document CHEMBL3580533, “Antagonism/Agonism modulation to build novel antihypertensives selectively triggering i1-imidazoline receptor activation” (ACS Med Chem Lett, 2015)
